Experiment [1] concerns the target T1, BACE1 (Homo sapiens (Human), UniProt P56817). The experiment in a line: In vitro enzymatic BACE1 FRET assay. In kind it is biochemical. As to conditions: read-out: BACE1 Enzyme IC50.
The target of experiment [2] is T1, BACE1. Put plainly: In vitro BACE1 cell-based assay (Aβ40 in conditioned medium of cells stably expressing APP, HTRF). As to conditions: read-out: BACE1 Cell IC50; Aβ40 in conditioned media after 24 h incubation.
The target of a further experiment is human recombinant BACE2 (Homo sapiens (Human), UniProt Q9Y5Z0). Put plainly: In vitro enzymatic BACE2 FRET assay. In kind it is biochemical. As to conditions: read-out: BACE2 Enzyme IC50.
For the next experiment, the target named is Cathepsin D (CatD) (Homo sapiens (Human), UniProt P07339). Put plainly: In vitro enzymatic Cathepsin D (CatD) FRET assay. In kind it is biochemical. Particulars: read-out: Cat D Enzyme IC50.

Amino acid sequences for entries named in this document (tags omitted). A change or cut given only in a name is not applied to a line headed by its entry.
UniProt P56817: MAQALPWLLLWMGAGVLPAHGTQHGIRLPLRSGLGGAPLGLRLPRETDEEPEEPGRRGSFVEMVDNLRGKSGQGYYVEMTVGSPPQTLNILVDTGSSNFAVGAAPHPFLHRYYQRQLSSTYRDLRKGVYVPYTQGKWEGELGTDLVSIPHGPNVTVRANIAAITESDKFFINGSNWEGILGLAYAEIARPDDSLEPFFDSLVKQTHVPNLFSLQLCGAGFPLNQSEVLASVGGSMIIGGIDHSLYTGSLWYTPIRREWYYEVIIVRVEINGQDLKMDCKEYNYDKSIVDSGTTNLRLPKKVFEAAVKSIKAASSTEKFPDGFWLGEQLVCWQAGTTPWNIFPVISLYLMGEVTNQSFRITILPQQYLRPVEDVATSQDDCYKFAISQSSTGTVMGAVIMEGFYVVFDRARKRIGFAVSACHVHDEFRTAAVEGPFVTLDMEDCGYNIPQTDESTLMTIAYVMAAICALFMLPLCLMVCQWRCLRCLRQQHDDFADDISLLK
UniProt Q9Y5Z0: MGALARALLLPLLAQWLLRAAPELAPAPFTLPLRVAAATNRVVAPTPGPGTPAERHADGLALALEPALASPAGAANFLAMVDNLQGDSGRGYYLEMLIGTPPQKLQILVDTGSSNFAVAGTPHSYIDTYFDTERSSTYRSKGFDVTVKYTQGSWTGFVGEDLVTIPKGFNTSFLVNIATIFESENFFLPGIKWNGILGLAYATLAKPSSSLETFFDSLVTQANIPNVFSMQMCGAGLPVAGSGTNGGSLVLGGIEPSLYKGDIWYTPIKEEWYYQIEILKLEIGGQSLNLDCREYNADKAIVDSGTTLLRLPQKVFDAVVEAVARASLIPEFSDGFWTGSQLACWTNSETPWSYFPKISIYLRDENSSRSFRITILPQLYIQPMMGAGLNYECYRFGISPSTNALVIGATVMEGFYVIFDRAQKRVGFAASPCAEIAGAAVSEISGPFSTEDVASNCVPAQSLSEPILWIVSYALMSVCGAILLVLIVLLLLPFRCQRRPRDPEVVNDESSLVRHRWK
UniProt P07339: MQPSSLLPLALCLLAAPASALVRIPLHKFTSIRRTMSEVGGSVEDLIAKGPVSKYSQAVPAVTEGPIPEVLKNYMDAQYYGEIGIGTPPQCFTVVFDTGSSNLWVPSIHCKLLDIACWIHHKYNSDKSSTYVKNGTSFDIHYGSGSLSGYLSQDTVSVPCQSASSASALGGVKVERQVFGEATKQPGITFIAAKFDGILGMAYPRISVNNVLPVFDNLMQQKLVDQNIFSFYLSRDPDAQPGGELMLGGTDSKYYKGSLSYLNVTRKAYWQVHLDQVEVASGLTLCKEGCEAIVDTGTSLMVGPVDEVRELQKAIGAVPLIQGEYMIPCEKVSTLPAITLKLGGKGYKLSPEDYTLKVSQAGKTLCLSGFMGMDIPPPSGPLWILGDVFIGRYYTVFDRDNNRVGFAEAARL

In general, IC50 refers to the concentration that gives 50% inhibition. On to “(1R,4R,5S)-2-amino-4-(2-fluoro-5-((Z)-2-fluoro-2-(tetrahydrofuran-2-yl)vinyl)phenyl)-1-(fluoromethyl)-4-methyl-8-thia-3-azabicyclo[3.2.1]oct-2-ene 8,8-dioxide”, for which the IC50 at BACE1 [1] is 251 nM; at BACE1 [2], 972 nM; at human recombinant BACE2 it was 139 nM; at Cathepsin D (CatD), 214000 nM.

The values are drawn from patent publication US11021493B2, “1,4-thiazine dioxide and 1,2,4-thiadiazine dioxide derivatives as beta-secretase inhibitors and methods of use” (AMGEN INC., priority 2016, dated 2021).
